How the values were obtained:
[1] = target: human ghrelin receptor (hGHS-R1a) (Homo sapiens, UniProt Q92847); assay: Competitive radioligand binding assay (ghrelin receptor), Method B2; settings: read-out: Binding Activity [Ki (nM)], [125I]-ghrelin competition, HEK-293 cell membranes
human motilin receptor = human motilin receptor (Homo sapiens, UniProt O43193); assay: Competitive radioligand binding assay (motilin receptor), Method B1; settings: read-out: Binding Activity [Ki (nM)], [125I]-motilin competition, CHO cell membranes

Sequences of proteins named here, by UniProt entry; tags and fusion partners are left off.
UniProt Q92847, whole entry: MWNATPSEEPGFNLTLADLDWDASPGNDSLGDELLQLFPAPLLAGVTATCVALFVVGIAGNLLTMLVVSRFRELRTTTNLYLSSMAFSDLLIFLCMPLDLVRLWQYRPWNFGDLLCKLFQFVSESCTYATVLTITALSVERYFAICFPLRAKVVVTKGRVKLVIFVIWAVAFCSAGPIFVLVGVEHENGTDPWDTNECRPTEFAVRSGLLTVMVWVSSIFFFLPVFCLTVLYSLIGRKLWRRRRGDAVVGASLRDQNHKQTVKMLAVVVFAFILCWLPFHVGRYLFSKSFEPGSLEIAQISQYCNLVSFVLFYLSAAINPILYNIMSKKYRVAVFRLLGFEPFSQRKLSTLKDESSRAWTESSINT
UniProt O43193, whole entry: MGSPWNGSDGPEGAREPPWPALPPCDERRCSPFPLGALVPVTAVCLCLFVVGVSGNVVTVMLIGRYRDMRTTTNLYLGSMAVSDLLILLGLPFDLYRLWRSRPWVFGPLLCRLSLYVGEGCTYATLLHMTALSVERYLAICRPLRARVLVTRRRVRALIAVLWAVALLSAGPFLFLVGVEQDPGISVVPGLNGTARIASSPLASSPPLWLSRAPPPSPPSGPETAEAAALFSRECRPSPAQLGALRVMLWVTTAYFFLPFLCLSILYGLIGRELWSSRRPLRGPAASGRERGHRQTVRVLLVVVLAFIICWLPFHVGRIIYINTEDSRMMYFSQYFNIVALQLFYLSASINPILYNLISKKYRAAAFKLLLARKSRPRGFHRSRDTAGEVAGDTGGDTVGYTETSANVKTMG

Structure (SMILES)	Ki [1]	Ki (human motilin receptor)
CCC[C@@H]1NCc2ccccc2Sc2ccccc2CNC(=O)[C@@H](Cc2ccccc2)NC(=O)CN(C)C1=O	100 to 1000 nM	
CCC[C@@H]1NC(=O)[C@H](C(C)C)/C=C/[C@@H](Cc2ccc(OC)cc2)NCCOc2ccccc2CCCNC1=O		1000 to 10000 nM
CCC[C@@H]1OC(=O)[C@@H](C(C)C)NC(=O)[C@@H](Cc2ccc(O)cc2)NCCOc2ccccc2CCCNC1=O		100 to 1000 nM
CCC(C)[C@@H]1NCCOc2ccccc2C=CCNC(=O)N(Cc2ccccc2)NC(=O)[C@@H](C)N(C)C1=O (stereo partly shown)	1000 to 10000 nM	

More lines, now with the values ahead:

Ki [1]	Ki (human motilin receptor)	Structure (SMILES)
1000 to 10000 nM		CC1C(=O)NC(Cc2ccc(F)cc2)C(=O)NCCOCCOCCNC(C2CC2)C(=O)N1C (stereo not shown)
	1000 to 10000 nM	CCC[C@@H]1NC(=O)[C@@H](C(C)C)NC[C@@H](Cc2ccc(O)cc2)NCCOc2ccccc2CCCNC1=O
1000 to 10000 nM		CCC(C)[C@@H]1NCCCCCCNC(=O)[C@@H](Cc2ccc(F)cc2)NC(=O)[C@@H](C)N(C)C1=O (stereo partly shown)
